Columns and labels:
[1] = target: GDP-bound NRAS wild-type protein (Homo sapiens, UniProt P01111); assay: Binding to NRAS by surface plasmon resonance (SPR), Single Cycle Kinetics; conditions: KD ratio class
[2] = target: GDP-bound HRAS wild-type protein (Homo sapiens, UniProt P01112); assay: Binding to HRAS by surface plasmon resonance (SPR), Single Cycle Kinetics; conditions: KD ratio class

Amino acid sequences for entries named in this document (tags omitted).
UniProt P01111, whole entry: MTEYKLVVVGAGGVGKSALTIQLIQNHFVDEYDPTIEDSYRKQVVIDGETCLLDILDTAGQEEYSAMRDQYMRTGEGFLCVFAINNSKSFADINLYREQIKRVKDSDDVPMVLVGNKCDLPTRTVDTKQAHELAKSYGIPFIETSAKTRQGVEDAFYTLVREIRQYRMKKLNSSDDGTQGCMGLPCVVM
UniProt P01112, whole entry: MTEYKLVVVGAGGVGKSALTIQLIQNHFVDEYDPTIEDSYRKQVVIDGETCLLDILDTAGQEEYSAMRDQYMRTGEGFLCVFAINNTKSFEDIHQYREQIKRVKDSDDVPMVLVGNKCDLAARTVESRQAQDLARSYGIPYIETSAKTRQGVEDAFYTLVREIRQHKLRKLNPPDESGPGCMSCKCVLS

| SMILES | NRAS/KRAS (ratio of KD value for GDP-bound NRAS wild-type protein to KD value for KRAS) [1] | HRAS/KRAS (ratio of KD value for GDP-bound HRAS wild-type protein to KD value for KRAS) [2] |
| --- | --- | --- |
| CCO[C@@H]1C[C@H]2C(=O)NC3(CCC3)C(=O)N(C)[C@@H](C3CCCC3)C(=O)N(C)[C@H](C(=O)N(C)C)CC(=O)N(C)[C@@H](CC3CCCC3)C(=O)N[C@@H]([C@@H](C)CC)C(=O)N(C)CC(=O)N(C)[C@H]3C/C=C\CCN(C3=O)[C@@H](CC3CCCCC3)C(=O)N(C)CC(=O)N[C@@H](CCc3cc(F)c(C(F)(F)F)c(F)c3)C(=O)N2C1 | A (a compound having 10 or more and less than 20 is denoted as A) | A (a compound having 10 or more and less than 20 is denoted as A) |
| C=CC[C@H]1C(=O)N[C@@H]([C@@H](C)CC)C(=O)N(C)CC(=O)N(C)[C@H]2C/C=C\CCN(C2=O)[C@@H](CC2CCCCC2)C(=O)N(C)CC(=O)N[C@@H](CCc2cc(F)c(C(F)(F)F)c(F)c2)C(=O)N2C[C@H](OCC)C[C@H]2C(=O)NC2(CCC2)C(=O)N(C)[C@@H](C2CCCC2)C(=O)N(C)[C@H](C(=O)N(C)C)CC(=O)N1C | A (a compound having 10 or more and less than 20 is denoted as A) | A (a compound having 10 or more and less than 20 is denoted as A) |
| CCO[C@@H]1C[C@H]2C(=O)NC3(CCC3)C(=O)N(C)[C@@H](C(CC)CC)C(=O)N(C)[C@H](C(=O)N(C)C)CC(=O)N(C)[C@@H](CC3CCCC3)C(=O)N[C@@H]([C@@H](C)CC)C(=O)N(C)CC(=O)N(C)[C@H]3C/C=C\CCN(C3=O)[C@@H](Cc3ccc(C(F)(F)F)cc3)C(=O)N(C)CC(=O)N[C@@H](CCc3ccc4sccc4c3)C(=O)N2C1 | AA (a compound having 20 or more is denoted as AA) | A (a compound having 10 or more and less than 20 is denoted as A) |
| CCO[C@@H]1C[C@H]2C(=O)NC3(CCC3)C(=O)N(C)[C@@H](C3CCCC3)C(=O)N(C)C(C(C)C)CC(=O)N(C)[C@@H](CC)C(=O)N[C@@H]([C@@H](C)CC)C(=O)N(C)CC(=O)N(C)[C@H]3C/C=C\CCN(C3=O)[C@@H](Cc3ccc(C(F)(F)F)cc3)C(=O)N(C)CC(=O)N[C@@H](CCc3cc(F)c(C(F)(F)F)c(F)c3)C(=O)N2C1 (stereo partly shown) | A (a compound having 10 or more and less than 20 is denoted as A) | B (a compound having 3 or more and less than 10 is denoted as B) |
| CCO[C@@H]1C[C@H]2C(=O)NC3(CCC3)C(=O)N(C)[C@@H](C3CCCC3)C(=O)N(C)[C@H](C(=O)N3CCCC3)CC(=O)N(C)[C@@H](CC)C(=O)N[C@@H]([C@@H](C)CC)C(=O)N(C)CC(=O)N(C)[C@H]3C/C=C\CCN(C3=O)[C@@H](CC3CCCCC3)C(=O)N(C)CC(=O)N[C@@H](CCc3cc(F)c(C(F)(F)F)c(F)c3)C(=O)N2C1 | AA (a compound having 20 or more is denoted as AA) | A (a compound having 10 or more and less than 20 is denoted as A) |
| CCO[C@@H]1C[C@H]2C(=O)NC3(CCC3)C(=O)N(C)[C@@H](C3CCCC3)C(=O)N(C)[C@H](C(=O)N3CCCC3)CC(=O)N(C)[C@@H](CC3CCC3)C(=O)N[C@@H]([C@@H](C)CC)C(=O)N(C)CC(=O)N(C)[C@H]3C/C=C\CCN(C3=O)[C@@H](Cc3ccc(C(F)(F)F)cc3)C(=O)N(C)CC(=O)N[C@@H](CCc3cc(F)c(C(F)(F)F)c(F)c3)C(=O)N2C1 | AA (a compound having 20 or more is denoted as AA) | A (a compound having 10 or more and less than 20 is denoted as A) |
| CCO[C@@H]1C[C@H]2C(=O)NC3(CC(F)(F)C3)C(=O)N(C)[C@@H](C(CC)CC)C(=O)N(C)C(C(C)C)CC(=O)N(C)[C@@H](CC)C(=O)N[C@@H]([C@@H](C)CC)C(=O)N(C)CC(=O)N(C)[C@H]3C/C=C\CCN(C3=O)[C@@H](Cc3ccc(C(F)(F)F)cc3)C(=O)N(C)CC(=O)N[C@@H](CCc3cc(F)c(C(F)(F)F)c(F)c3)C(=O)N2C1 (stereo partly shown) | A (a compound having 10 or more and less than 20 is denoted as A) | A (a compound having 10 or more and less than 20 is denoted as A) |
| CC[C@H](C)[C@@H]1NC(=O)[C@H](CC2CC2)N(C)C(=O)C[C@@H](C(=O)N(C)C)N(C)C(=O)[C@H](C2CCCC2)N(C)C(=O)C2(CCCC2)NC(=O)[C@@H]2CC(F)(F)CN2C(=O)[C@H](CCc2cc(F)c(C(F)(F)F)c(F)c2)NC(=O)CN(C)C(=O)[C@H](Cc2ccc(C(F)(F)F)cc2)N2CC/C=C\C[C@@H](C2=O)N(C)C(=O)CN(C)C1=O | A (a compound having 10 or more and less than 20 is denoted as A) | A (a compound having 10 or more and less than 20 is denoted as A) |
| CCO[C@@H]1C[C@H]2C(=O)NC3(CCC3)C(=O)N(C)[C@@H](C3CCCC3)C(=O)N(C)[C@H](C(=O)N3CCCC3)CC(=O)N(C)[C@@H](C)C(=O)N[C@@H]([C@@H](C)CC)C(=O)N(C)CC(=O)N(C)[C@H]3C/C=C\CCN(C3=O)[C@@H](Cc3ccc(C(F)(F)F)cc3)C(=O)N(C)CC(=O)N[C@@H](CCc3cc(F)c(C(F)(F)F)c(F)c3)C(=O)N2C1 | AA (a compound having 20 or more is denoted as AA) | A (a compound having 10 or more and less than 20 is denoted as A) |
| CC[C@H](C)[C@@H]1NC(=O)[C@H](CC)N(C)C(=O)C[C@@H](C(=O)N(C)C)N(C)C(=O)[C@H](C2CCCC2)N(C)C(=O)C2(CCCC2)NC(=O)[C@@H]2CCCN2C(=O)[C@H](CCc2cc(F)c(C(F)(F)F)c(F)c2)NC(=O)CN(C)C(=O)[C@H](Cc2ccc(C(F)(F)F)cc2)N2CC/C=C\C[C@@H](C2=O)N(C)C(=O)CN(C)C1=O | A (a compound having 10 or more and less than 20 is denoted as A) | B (a compound having 3 or more and less than 10 is denoted as B) |
| CCO[C@@H]1C[C@H]2C(=O)NC3(CCC3)C(=O)N(C)[C@@H](C3CCCC3)C(=O)N(C)[C@H](C(=O)N3CCCC3)CC(=O)N(C)[C@@H](CC(F)F)C(=O)N[C@@H]([C@@H](C)CC)C(=O)N(C)CC(=O)N(C)[C@H]3C/C=C\CCN(C3=O)[C@@H](Cc3ccc(C(F)(F)F)cc3)C(=O)N(C)CC(=O)N[C@@H](CCc3cc(F)c(C(F)(F)F)c(F)c3)C(=O)N2C1 | AA (a compound having 20 or more is denoted as AA) | A (a compound having 10 or more and less than 20 is denoted as A) |
| CCO[C@@H]1C[C@H]2C(=O)NC3(CCC3)C(=O)N(C)[C@@H](C3CCCC3)C(=O)N(C)[C@H](C(=O)N(C)C)CC(=O)N(C)[C@@H](CC3CC3)C(=O)N[C@@H]([C@@H](C)CC)C(=O)N(C)CC(=O)N(C)[C@H]3C/C=C\CCN(C3=O)[C@@H](Cc3ccc(F)cc3)C(=O)N(C)CC(=O)N[C@@H](CCc3cc(F)c(C(F)(F)F)c(F)c3)C(=O)N2C1 | A (a compound having 10 or more and less than 20 is denoted as A) | B (a compound having 3 or more and less than 10 is denoted as B) |
| CC[C@H](C)[C@@H]1NC(=O)[C@H](CC(C)C)N(C)C(=O)C[C@@H](C(=O)N(C)C)N(C)C(=O)[C@H](C2CCCC2)N(C)C(=O)C2(CCC2)NC(=O)[C@@H]2CCCN2C(=O)[C@H](CCc2cc(F)c(C(F)(F)F)c(F)c2)NC(=O)CN(C)C(=O)[C@H](Cc2ccc(C(F)(F)F)cc2)N2CC/C=C\C[C@@H](C2=O)N(C)C(=O)CN(C)C1=O | A (a compound having 10 or more and less than 20 is denoted as A) | A (a compound having 10 or more and less than 20 is denoted as A) |
| CCO[C@@H]1C[C@H]2C(=O)NC3(CCC3)C(=O)N(C)[C@@H](C3CCCC3)C(=O)N(C)[C@H](C(=O)N(C)C)CC(=O)N(C)[C@@H](CC)C(=O)N[C@@H](C3CCC3)C(=O)N(C)CC(=O)N(C)[C@H]3C/C=C\CCN(C3=O)[C@@H](Cc3ccc(C(F)(F)F)cc3)C(=O)N(C)CC(=O)N[C@@H](CCc3cc(F)c(C(F)(F)F)c(F)c3)C(=O)N2C1 | A (a compound having 10 or more and less than 20 is denoted as A) | B (a compound having 3 or more and less than 10 is denoted as B) |
| CCO[C@@H]1C[C@H]2C(=O)NC3(CCC3)C(=O)N(C)[C@@H](C3CCCC3)C(=O)N(C)[C@H](C(=O)N(C)C)CC(=O)N(C)[C@@H](CC3CCC3)C(=O)N[C@@H]([C@@H](C)CC)C(=O)N(C)CC(=O)N(C)[C@H]3C/C=C\CCN(C3=O)[C@@H](CC3CCC(F)(F)CC3)C(=O)N(C)CC(=O)N[C@@H](CCc3cc(F)c(C(F)(F)F)c(F)c3)C(=O)N2C1 | A (a compound having 10 or more and less than 20 is denoted as A) | A (a compound having 10 or more and less than 20 is denoted as A) |
| CC[C@H](C)[C@@H]1NC(=O)[C@H](CC)N(C)C(=O)C[C@@H](C(=O)N(C)C)N(C)C(=O)[C@H](C2CCCC2)N(C)C(=O)C2(CCC2)NC(=O)[C@@H]2CC(F)(F)CN2C(=O)[C@H](CCc2cc(F)c(C(F)(F)F)c(F)c2)NC(=O)CN(C)C(=O)[C@H](CC2CCC(F)(F)CC2)N2CC/C=C\C[C@@H](C2=O)N(C)C(=O)CN(C)C1=O | A (a compound having 10 or more and less than 20 is denoted as A) | A (a compound having 10 or more and less than 20 is denoted as A) |
| CCO[C@@H]1C[C@H]2C(=O)NC3(CCC3)C(=O)N(C)[C@@H](C3CCCC3)C(=O)N(C)[C@H](C(=O)N3CCOCC3)CC(=O)N(C)[C@@H](CC)C(=O)N[C@@H]([C@@H](C)CC)C(=O)N(C)CC(=O)N(C)[C@H]3C/C=C\CCN(C3=O)[C@@H](Cc3ccc(C(F)(F)F)cc3)C(=O)N(C)CC(=O)N[C@@H](CCc3ccc(C(F)(F)F)c(Cl)c3)C(=O)N2C1 | AA (a compound having 20 or more is denoted as AA) | A (a compound having 10 or more and less than 20 is denoted as A) |

Reference: patent publication US20250230193A1, “CYCLIC COMPOUND HAVING SELECTIVE KRAS INHIBITORY EFFECT ON HRAS AND NRAS” (CHUGAI SEIYAKU KABUSHIKI KAISHA, priority 2022, published 2025)
